Key:
[1] = system: Tubulin α1 (Tα1) promoter; settings: undifferentiated ESCs, 48 h exposure; lowest tested concentration with statistically significant decrease
EF1α promoter [2] = settings: undifferentiated ESCs, 48 h exposure
CGR8-2Luc ESCs = settings: undifferentiated ESCs, 48 h exposure, PI assay (cytotoxicity)
[3] = system: Tubulin α1 (Tα1) promoter; settings: ESC-derived neurons, 48 h exposure
EF1α promoter [4] = system: EF1α promoter
ESC-derived neurons = settings: 48 h exposure, PI assay (cytotoxicity)
[5] = system: ESCs and ESC-derived neurons; settings: reporter activity changes in the non-cytotoxic concentration range; highest possible number 4
[6] = ref Zimmer et al. ([2014]); cited from earlier work
[7] = Table S1, three classes; ref per compound in the footnotes of Table S1; cited from earlier work

Substance: IFN-β: Activation of Janus kinase and Stat1/2; used for relapsing/remitting multiple sclerosis; Peptide/Protein
- LOAEL ESC Tα1 [1]: >0.0002 µM
- LOAEL ESC EF1α (EF1α promoter [2]): >0.0002 µM
- LOAEL ESC DNA (CGR8-2Luc ESCs): >0.0002 µM
- LOAEL Neurons Tα1 [3]: >0.0002 µM
- effect on general promoter activity in neurons (EF1α promoter [4]): selectively increased
- LOAEL Neurons EF1α (EF1α promoter [4]; ESC-derived neurons, 48 h exposure): >0.0002 µM
- LOAEL Neurons DNA (ESC-derived neurons): >0.0002 µM
- Number of non-cytotoxic changes [5]: 0
- Concentration in humans [6]: 0.4*10^−6–7.5*10^−3k µM
- class based on clinical evidence for neurotoxicity [7]: Possibly (developmental)

Source: PMC5225183, “Fingerprinting of neurotoxic compounds using a mouse embryonic stem cell dual luminescence reporter assay” (Archives of Toxicology, 2016)
